High-throughput results deposited in PubChem BioAssay by National Center for Advancing Translational Sciences (NCATS).
Apoferritin bind – candidate novel general anesthetic via apoferritin binding; AID 485281; Potency, µM (titrated, usually from 77.5 µM), inactives show at the highest dose activity change, negative = displacement, hits mostly inhibitors; apoferritin/1-aminoanthracene competitive binding, fluorescence; actives 0.074% (n = 350,000); P02791; note: potency is the fitted concentration of half-maximal effect; % is set by controls: 0 for no effect and ±100 for the full control effect; nearly all actives have a fitted effect of over 20% in size
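Probe: 1-aminoanthracene (50% saturated, PBS). Protein: horse-spleen apoferritin, 10 uM. Incubation: 10 min, room temperature. Detection: 380 nm excitation, 535 nm emission. Analysis: normalized response, four-parameter Hill.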
BRCA1 expr up – increases BRCA1 expression | AID 624202 | actives 1.1% (n = 380,000) | MCF7-BRCA1-FFLuc reporter, luminescence, 48 h; response scale: scaled: vehicle 0%, 10 µM genistein 100% | Potency, µM (top dose mostly 46.1 µM), without a hit: top-dose activation, usual class: activators; note: potency is the fitted concentration of half-maximal effect; nearly all actives have a fitted effect of over 80% in size
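Quantitative HTS in MCF7 cells stably reporting BRCA1 expression via firefly luciferase. Compound treatment lasts 48 h at 37 °C in phenol-red free MEM. Activation is expressed relative to genistein at 10 microM and DMSO.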
p53 reactivation – re-activators of mutant p53 | Potency, µM (titrated, usually from 92.2 µM), for inactives: at the top dose activity change, positive = activation, hits mostly activators | actives 0.063% (n = 320,000) | AID 504706 | H1299 p53-A138V BP100-luciferase reporter, luminescence, 24 h; note: potency is the fitted concentration of half-maximal effect; % of control where 0% means no effect; nearly all actives have a fitted effect of over 45% in size
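p53-null H1299 cells stably carrying temperature-sensitive p53-A138V and a BP100-luciferase reporter were pinned with compounds (4-point, 1:5 series) and held 24 hrs at 37 deg C. Luminescence was read 10 min after detection reagent.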
miR-21 reporter – miR-21 reporter, rising signal; HeLa miR-21 FLuc reporter, luciferase, 48 h; Potency, µM (titrated, usually from 38.3 µM), for the others: at the top dose reporter change, positive = more light; 340,000 tested, under 10 active; AID 2288; active = well fitted rising curve with a large enough effect; inconclusive = small, poorly fitted or top-dose-only effect; inactive = no such curve, though single readings can be large or run the other way;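 also: % of control where 0% means no effect; miR-21 action dims this reporter so a rising signal means less miR-21 action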
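Compounds were titrated across several concentrations (up to approximately 40 uM) and incubated 48 hours with HeLa miR-21-FLuc reporter cells (miR-21 target sequence downstream of FLuc, endogenous miR-21). Readout was firefly luciferase luminescence after lytic detection reagent.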
An asterisk follows results filed as active; ? = inconclusive; / = no result given. A selection: hits, their analogues and other compounds. The true share with any hit is near 1.1%. Unless noted, calls come from the whole dose curve; as a rule, active = well fitted curve in the direction sought with a large enough effect; inconclusive = small, poorly fitted or top-dose-only effect, or another doubt; inactive = no such curve, though single readings can be large; an effect the other way counts as inactive or inconclusive.

Screens by letter – A = Apoferritin bind; B = BRCA1 expr up; C = p53 reactivation; D = miR-21 reporter
> Cc1noc(C)c1C(=O)N1CCC1(C)C(=O)NS(=O)(=O)c1ccc(Cl)cc1 (stereo unspecified)
  A: / | B: 0.0% | C: / | D: /

> Fc1cccc(CSc2ccc(-c3ccco3)nn2)c1
  A: ? | B: ? | C: ? | D: -73.1%

> Fc1ccc(CSc2ccc(-c3ccco3)nn2)cc1
  A: -8.6% | B: 7.08µM* | C: ? | D: -60.4%

> Cc1ccc2onc(CNC(=O)N3CCN(c4cc(Cl)ccc4C)CC3)c2c1
  A: -9.3% | B: / | C: / | D: 23.1%

> COc1ccc(NC(=O)CN(C)CC(=O)N2CCCCCC2)cc1
  A: / | B: 2.9% | C: -1.1% | D: /

> Cc1ccc(O)c(NC2=C(Cl)C(=O)N(Cc3ccccc3)C2=O)c1
  A: 22.4µM* | B: -43.0% | C: -0.5% | D: -1.2%

> Cc1ccc(C(=O)N2CCCCC2)cc1NC1=C(Cl)C(=O)N(Cc2ccccc2)C1=O
  A: / | B: -89.6% | C: -9.2% | D: /

> CN(C(=O)CSc1nnc2[nH]c(=O)cc(-c3ccccc3)n12)c1ccccc1
  A: 57.1% | B: / | C: / | D: 0.8%

> CC1(C)CCC(=O)N2CC[C@H]3C[C@H](OC(=O)Nc4ccc5c(c4)OCO5)C[C@@H]1[C@H]32
  A: -4.0% | B: 11.2µM* | C: / | D: -16.6%

> Cc1ccc(-c2nnc(N3CCOCC3)c3ccccc23)cc1S(=O)(=O)N(C)C
  A: 29.6% | B: -12.9% | C: 3.8% | D: 0.2%

> Cc1ccc(NC(=O)c2sc3nc(CCl)[nH]c(=O)c3c2C)c(C)c1
  A: -23.2% | B: 11.2µM* | C: 4.8% | D: -55.7%

> CCc1cccc(NC(=O)c2sc3nc4n(c(=O)c3c2C)CCC4)c1
  A: -19.4% | B: 12.6µM* | C: 23.8% | D: -53.5%

> Cc1ccc(NC(=O)CN(C)C(=O)COC(=O)COc2cc(C)cc(C)c2)cc1
  A: / | B: -5.5% | C: / | D: /

> Cc1csc(=N)n1-c1ccc(Cl)cc1
  A: 11.2µM* | B: ? | C: ? | D: -36.6%

> C#Cc1ccc(NC(=O)C2(C)CCN2C(=O)CC(c2ccccc2)c2ccccc2)cc1 (stereo unspecified)
  A: / | B: -37.3% | C: / | D: /

> Nc1nc(COc2ccc(Cl)cc2)cs1
  A: ? | B: ? | C: 6.6% | D: -49.4%

> COc1ccc(-c2csc(N)n2)cc1
  A: -8.7% | B: 10µM* | C: ? | D: -48.8%

> Nc1nc(-c2ccc(Oc3ccccc3)cc2)cs1
  A: -12.1% | B: 11.2µM* | C: 28.5% | D: -37.8%

> Nc1nc(-c2ccc(-c3ccccc3)cc2)cs1
  A: -7.1% | B: ? | C: 19.1% | D: -53.0%

> Cc1ccc(OCc2csc(N)n2)cc1
  A: -23.5% | B: 5.01µM* | C: 9.1% | D: -45.7%

> Cc1ccc(-c2csc(N)n2)cc1
  A: / | B: 10µM* | C: / | D: /

> COc1ccc(-c2csc(N=C(N)N)n2)cc1
  A: -13.8% | B: ? | C: 2.1% | D: -61.8%

> Cc1c(C(=O)N(C)C)sc2c1c(=O)n(-c1ccc(Cl)cc1)c(=O)n2CC(=O)C(C)(C)C
  A: -2.3% | B: / | C: / | D: 2.2%

> Cc1nc(SCC(=O)N2CCN(C(=O)c3cccs3)CC2)c2c(C)c(C)sc2n1
  A: / | B: -60.6% | C: -12.2% | D: /

> COc1ccc(-c2nc(C#N)c(NCc3ccco3)o2)cc1
  A: -8.6% | B: 8.91µM* | C: 1.4% | D: -91.1%

> Cc1nnsc1C(=O)N1CCCC(C)(C(=O)NS(=O)(=O)C2CC2)C1 (stereo unspecified)
  A: / | B: -15.4% | C: / | D: /

> N#C/C(=C\c1ccc(OCc2ccc(F)cc2)cc1)C(=O)Nc1cccc(C(=O)O)c1
  A: -7.5% | B: 11.2µM* | C: ? | D: -20.6%

> N#C/C(=C\c1ccc(OCc2ccc(Br)cc2)cc1)C(=O)Nc1cccc(C(=O)O)c1
  A: -18.6% | B: 7.08µM* | C: ? | D: -56.6%

> N#C/C(=C/c1ccc(OCc2ccc(C(=O)O)cc2)cc1)C(=O)Nc1ccccc1
  A: 2.3% | B: -1.6% | C: -1.3% | D: -7.1%

> COc1cc(/C=C(\C#N)C(=O)Nc2cccc(C(=O)O)c2)ccc1OCc1ccc(F)cc1
  A: -14.4% | B: 11.2µM* | C: ? | D: -44.1%

> N#C/C(=C\c1ccccc1OCc1ccc(C(=O)O)cc1)C(=O)Nc1ccc(O)cc1
  A: -13.7% | B: 0.0% | C: 5.0% | D: -14.3%

> COc1ccc(NC(=O)/C(C#N)=C\c2ccc(OCc3ccc(C(=O)O)cc3)c(OC)c2)cc1
  A: -1.1% | B: 66.8% | C: 5.7% | D: -6.1%

> Nn1c(SCC(=O)Nc2ccc3c(c2)OCO3)nnc1C1CCCCC1
  A: 5.01µM* | B: -17.8% | C: / | D: -6.2%

> Nn1c(SCC(=O)Nc2ccc3c(c2)OCO3)nnc1C1CC1
  A: -5.1% | B: -40.3% | C: 4.0% | D: -4.1%

> C=C(C)CSc1nnc(-c2cccc(Cl)c2)n1N
  A: ? | B: 12.6µM* | C: 12.4% | D: -38.4%

> CCOC(=O)C1=CNS(=O)(=O)NC1c1ccc(C)cc1 (stereo unspecified)
  A: / | B: 13.6% | C: 0.6% | D: /

> COc1ccc(C(=O)Nn2cnc3ccccc3c2=O)c(OC)c1
  A: -4.5% | B: 8.91µM* | C: 12.2% | D: -39.0%

> COc1ccc(C(=O)Nn2c(C)nc3ccccc3c2=O)c(OC)c1
  A: 3.5% | B: -5.3% | C: -2.6% | D: -10.8%

> CCC(C)c1ccc(NC(=O)N2CCOCC2)cc1 (stereo unspecified)
  A: -14.8% | B: 10µM* | C: -2.9% | D: -37.3%

> Cc1cccc(OCC2=NS(=O)(=O)c3ccccc3N2)c1
  A: -19.8% | B: 11.2µM* | C: 19.9% | D: -40.4%

> Cc1ccccc1/C(N)=N/OC(=O)c1ccc(F)cc1
  A: -3.4% | B: 30.0% | C: ? | D: -37.4%

> N/C(CS(=O)(=O)c1ccccc1)=N\OC(=O)c1ccc(F)cc1
  A: -10.2% | B: 11.2µM* | C: ? | D: -51.0%

> O=C(Nc1ccc(Cl)cn1)Nc1ccc(Cl)cn1
  A: 3.0% | B: 39.0% | C: 2.6% | D: 1.4%

> C/C(=C\c1ccccc1)C(=O)Nc1ccc(Cl)cn1
  A: -14.6% | B: 7.94µM* | C: -23.5% | D: -41.6%

> CC(C)C(=O)Nc1cccc(-c2cnc3ccccc3n2)c1
  A: -15.0% | B: 11.2µM* | C: 6.1% | D: -41.2%

> COc1ccc(C(=O)Nc2cccc(-c3cnc4ccccc4n3)c2)cc1
  A: -18.5% | B: 3.98µM* | C: 25.3% | D: -15.2%

> Cc1ccc(C(=O)Nc2cccc(-c3cnc4ccccc4n3)c2)cc1
  A: -11.9% | B: 73.8% | C: 2.2% | D: -12.4%

> COc1ccc(Nc2cnn(-c3nc4ccccc4s3)c(=O)c2Cl)cc1
  A: -0.6% | B: -45.1% | C: -18.4% | D: -35.1%

> O=c1c(Cl)c(Nc2cccc(Cl)c2)cnn1-c1nc2ccccc2s1
  A: -8.4% | B: 14.1µM* | C: ? | D: -51.1%

> Cc1ccc(C(=O)N2CCc3ccccc32)o1
  A: -2.1% | B: ? | C: ? | D: -34.8%

> Cc1ccc(C(=O)N2c3ccccc3CC2C)o1 (stereo unspecified)
  A: ? | B: 3.98µM* | C: 7.6% | D: -55.7%

> CC(C)c1cc(C(=O)Nc2ccc3c(c2)OCO3)no1
  A: 7.0% | B: 50.3% | C: ? | D: -29.6%

> O=C(Nc1ccc2c(c1)OCO2)c1ccc(=O)[nH]n1
  A: 0.6% | B: 11.2µM* | C: 11.2% | D: -44.1%

> O=C(Nc1ccc2c(c1)OCO2)c1cc(C2CC2)on1
  A: -7.9% | B: 4.47µM* | C: 9.3% | D: -16.1%

> O=C(Nc1ccc2c(c1)OCO2)c1n[nH]c(=O)c2ccccc12
  A: -0.7% | B: ? | C: 12.6% | D: -69.0%

> N#Cc1ccc(C(=O)OCC(=O)N2CCCCCC2)cc1
  A: / | B: 9.0% | C: 4.3% | D: /

> COc1ccc(Nc2c3c(nc4ccc(NC(=O)c5cc(Cl)ccc5OC)cc24)CCCC3)cc1OC
  A: ? | B: -42.6% | C: / | D: ?

> C[C@@H]1CCCCO[C@H](CN(C)Cc2ccc3c(c2)OCO3)[C@@H](C)CN([C@H](C)CO)C(=O)c2cc(NC(=O)c3ccccc3)ccc2O1
  A: / | B: -31.5% | C: / | D: /

> Cc1ccccc1-n1c(C)cc(/C=C(\C#N)C(=O)NCC2CCCO2)c1C (stereo unspecified)
  A: -10.6% | B: 14.1µM* | C: ? | D: -57.6%

5 neighbouring compounds from above:
Screens by letter – A = Apoferritin bind; B = BRCA1 expr up; C = p53 reactivation; D = miR-21 reporter
> Cc1noc(C)c1C(=O)N1CCC1(C)C(=O)NS(=O)(=O)c1ccc(Cl)cc1 (stereo unspecified)
  A: / | B: 0.0% | C: / | D: /

> Fc1cccc(CSc2ccc(-c3ccco3)nn2)c1
  A: ? | B: ? | C: ? | D: -73.1%

> Fc1ccc(CSc2ccc(-c3ccco3)nn2)cc1
  A: -8.6% | B: 7.08µM* | C: ? | D: -60.4%

> Cc1ccc2onc(CNC(=O)N3CCN(c4cc(Cl)ccc4C)CC3)c2c1
  A: -9.3% | B: / | C: / | D: 23.1%

> COc1ccc(NC(=O)CN(C)CC(=O)N2CCCCCC2)cc1
  A: / | B: 2.9% | C: -1.1% | D: /
